Inhibition data for 37 compounds are collected here from PubChem BioAssay AID504490 (NMMLSC, 2011).

The entries are a selection whose mix differs from that of the whole data set. The source made the active and inactive calls.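 Rule for the calls: active = inhibition above a set limit, near 3 SD of compounds lacking own fluorescence (cut at about 54% in these data); inactive = the rest.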

The test system of this experiment is beta-arrestin 1 C-terminal peptide binding to AP2 beta2-adaptin appendage (human). Description: blockers of arrestin peptide association with AP2 adaptin – biochemical, GPCR trafficking, flow cytometry, primary screen (AID 504490).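 Note: plate controls were DMSO wells for no effect and 5 µM unlabelled arrestin peptide for full effect.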 To be noted: FITC-arrestin peptide / GST-AP2 beads, at 10 µM, hits give high values, AP2 beta2 appendage carries R879A mutation.
The inhibition is the drop in the measured response relative to a control, in per cent. On to `COc1ccc(NP(C)(=O)Oc2ccccc2OC)cc1` (configuration not stated), for which the inhibition was inactive: 4.94%.

In the case of `O=[N+]([O-])c1ccc(OP2(=O)COCCO2)cc1` (configuration not stated), the inhibition was inactive: -7.12%.

On to `Cc1cc(-c2cccc3ccccc23)c(C)cn1.O=[N+]([O-])c1cc([N+](=O)[O-])c(O)c([N+](=O)[O-])c1`, for which the inhibition was inactive: 31.9%.

Regarding `O=[N+]([O-])c1cc([N+](=O)[O-])c(NCC2CCS(=O)(=O)C2)c([N+](=O)[O-])c1` (configuration not stated), the inhibition is inactive: 2.28%.

Turning to `Cc1c(C(c2ccc3c(c2)OCO3)c2c(C)n(C)n(-c3ccccc3)c2=O)c(=O)n(-c2ccccc2)n1C.O=[N+]([O-])c1cc([N+](=O)[O-])c(O)c([N+](=O)[O-])c1`, the inhibition was inactive: -1.45%.

On to `CP(=O)(Nc1ccc(SC(F)(F)F)cc1)Oc1ccc(F)cc1` (configuration not stated), for which the inhibition is inactive: -4.63%.

Regarding `CCOP(C)(=S)SCC(=O)NC(C)(CC)C(=O)O` (configuration not stated), the inhibition was inactive: 2.94%.

Consider `CP(=O)(Nc1ccc2c(c1)OCCO2)Oc1ccccc1` (configuration not stated), for which the inhibition is inactive: 5.36%.

With `Cc1ccccc1NP(C)(=O)Nc1ccccc1C`, the inhibition is inactive: 1.8%.

For `COc1ccc(OP(C)(=O)Nc2ccc(Br)cc2)cc1` (configuration not stated), the inhibition is inactive: 1.6%.

For `CCN(CC)CC(O)COC(=O)C(O)(c1ccccc1)C1CCCCC1` (configuration not stated), the inhibition was inactive: 22%.

For `O=C(OCCCN1CCCC1)C(O)(c1ccccc1)C1CCCCC1` (configuration not stated), the inhibition was inactive: 15.2%.

Consider `COc1ccccc1OP(C)(=O)Nc1c(C)n(C)n(-c2ccccc2)c1=O` (configuration not stated), for which the inhibition was inactive: 2.9%.

Regarding `CCc1ccc(OP(C)(=O)Nc2cccnc2)cc1` (configuration not stated), the inhibition was inactive: -2.65%.

Take `CP(=O)(Oc1ccccc1)N1CCOC1=O` (configuration not stated): the inhibition was inactive: -1.36%.

Take `CC(C)(C)c1ccc(OP(C)(=O)O)cc1`: the inhibition was inactive: 6.97%.

Turning to `COc1ccccc1OP(C)(=O)Nc1ccccc1Br` (configuration not stated), the inhibition was inactive: -3.55%.

As to `CP(=O)(Nc1ccc(Cl)cc1)Oc1ccc(F)cc1` (configuration not stated), the inhibition was inactive: 7.55%.

With `CN(C)C(=O)c1c([N+](=O)[O-])cc([N+](=O)[O-])cc1[N+](=O)[O-]`, the inhibition is inactive: 10.7%.

For `Nc1ccc2c(ccc3cccnc32)n1.O=[N+]([O-])c1cc([N+](=O)[O-])c(O)c([N+](=O)[O-])c1`, the inhibition was inactive: 4.5%.

Take `CCOC(=O)c1ccc(NP(C)(=O)Oc2ccc(Cl)cc2)cc1` (configuration not stated): the inhibition was inactive: 3.29%.

In the case of `CP(=O)(OC12CC3CC(CC(C3)C1)C2)OC12CC3CC(CC(C3)C1)C2`, the inhibition is inactive: -9.06%.

For `Cc1cc(C)cc(OP(C)(=O)Nc2cccc(C(F)(F)F)c2)c1` (configuration not stated), the inhibition was inactive: 15.3%.

Turning to `O=C1C(O)=C([N+](=O)[O-])C(=O)C(O)=C1[N+](=O)[O-]`, the inhibition is inactive: -6.5%.

On to `COc1ccccc1OP(C)(=O)Nc1ccc(C)c(C)c1` (configuration not stated), for which the inhibition is inactive: 4.04%.

Consider `COc1ccc(OP(C)(=O)Nc2ccccc2Br)cc1` (configuration not stated), for which the inhibition was inactive: -2.19%.

In the case of `CP(=O)(OCCOc1ccccc1)OCCOc1ccccc1`, the inhibition is inactive: 40.7%.

For `CCCCCCCCCCCCCCCC1C[N+](C)(C)CCOP(C)(=O)O1` (configuration not stated), the inhibition is inactive: 43.1%.

With `CP(=O)(Nc1ccc(Cl)cc1Cl)Oc1ccccc1` (configuration not stated), the inhibition was inactive: 35.1%.

On to `COc1ccccc1OP(C)(=O)Nc1ccc(Br)cc1` (configuration not stated), for which the inhibition is inactive: 13.4%.

As to `COc1ccc(OP(C)(=O)Nc2ccccn2)cc1` (configuration not stated), the inhibition is inactive: 12%.

Take `CN(C)CCOC(=O)C(O)(c1ccccc1)C1CCCC1` (configuration not stated): the inhibition was inactive: 2.47%.

As to `O=[N+]([O-])c1cc([N+](=O)[O-])c(Nc2ccccn2)c([N+](=O)[O-])c1`, the inhibition was inactive: -3.81%.

Regarding `Cc1c(NP(C)(=O)Oc2ccc(C(C)C)cc2)c(=O)n(-c2ccccc2)n1C` (configuration not stated), the inhibition is inactive: 1.06%.

In the case of `COc1ccccc1OP(C)(=O)Nc1ccc(C)cc1C` (configuration not stated), the inhibition is inactive: 23.4%.

For `CP(=O)(Nc1ccccn1)Oc1ccccc1` (configuration not stated), the inhibition was inactive: 1.38%.

Turning to `CCc1ccc(OP(C)(=O)O)cc1`, the inhibition was inactive: -1.24%.
